Test results published in patent publication US20150133434A1, “Compositions and Methods for Reactivating Latent Immunodeficiency Virus” (priority 2012, published 2015).

Test system: latent HIV-1 in Bcl-2-transduced resting CD4+ T cells
Assay type: cell-based
Conditions: 24-72 h, average of two donors

In the case of `CCNC(=O)C[C@@H]1N=C(c2ccc(Cl)cc2)c2cc(OC)ccc2-n2c(C)nnc21` [I-Bet, (S)-2-(6-(4-chlorophenyl)-8-methoxy-1-methyl-4H-benzo[f][1,2,4]triazolo[4,3-a][1,4]diazepin-4-yl)-N-ethylacetamide], the “reactivation of latent HIV-1 relative to costimulation with αCD3 and αCD28 antibodies” value is reported as “same activation”.
